Test [1] addresses CLK3 (Homo sapiens, UniProt P49761). Nature of the test: Coupled-enzyme (PK/LDH) kinase inhibition assay. The format is biochemical. Also on record: CLK3 (residues 275–632) were subcloned by ligation independent cloning; hexahistidine tag (TEV-cleavable) (cleaved yes); made in house; host or cells: E. coli BL21(DE3).
In test [2] the target is DYRK1A (Homo sapiens, UniProt Q13627). Nature of the test: Coupled-enzyme (PK/LDH) kinase inhibition assay. Format: biochemical. The following applies: 0.1 mM ATP, 25°C; average from three independent experiments.

Protein sequences, listed by entry. Tags and fused reporters are not part of them. Residues count along the entry.
UniProt P49761, 127-484 limits assumed: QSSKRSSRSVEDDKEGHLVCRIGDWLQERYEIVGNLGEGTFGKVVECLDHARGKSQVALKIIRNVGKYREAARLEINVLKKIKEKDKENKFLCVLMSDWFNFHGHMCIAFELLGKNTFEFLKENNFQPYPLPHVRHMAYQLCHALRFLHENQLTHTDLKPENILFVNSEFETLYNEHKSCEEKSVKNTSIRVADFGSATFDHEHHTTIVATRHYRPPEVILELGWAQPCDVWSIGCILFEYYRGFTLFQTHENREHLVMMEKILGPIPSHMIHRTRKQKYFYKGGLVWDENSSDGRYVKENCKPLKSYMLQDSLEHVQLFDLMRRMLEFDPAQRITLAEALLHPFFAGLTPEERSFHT

Molecules are shown by their SMILES. Like-named read-outs stand apart in the source and are kept apart here.

For the compound `CCOC(=O)c1c(C(C#N)=CN)c2ccc(Cl)c(Cl)c2n1C` (mixture of isomers) [KH-CB20, (E/Z)-Ethyl 3-(2-Amino-1-Cyanovinyl)-6,7-Dichloro-1-Methyl-1H-Indole-2-Carboxylate], in test [1], the IC50 was found to be 488 ± 120 nM.

In the case of `CCOC(=O)c1c(/C(C#N)=C\N)c2ccc(Cl)c(Cl)c2n1C` [KH-CB19, (E)-Ethyl 3-(2-Amino-1-Cyanovinyl)-6,7-Dichloro-1-Methyl-1H-Indole-2-Carboxylate], in test [1], the IC50 is 530 ± 140 nM. `CCN1/C(=C/C(C)=O)Sc2ccc(OC)cc21` [TG003]: the IC50 in test [2] is 156 ± 23 nM; in test [1] (0.1 mM ATP, 25°C, average from three independent experiments, read-out: IC50 CLK3), over 4000 nM.

Values taken from PMC3145970, “Specific CLK Inhibitors from a Novel Chemotype for Regulation of Alternative Splicing” (Chemistry & Biology, 2011).
